The entries are a selection whose mix differs from that of the whole data set. Active and inactive are the calls of the source. Cut-off read from the data, not from the text of the source: active = inhibition above about 50%; inactive = the rest.
Assay: inhibitors of induced NF-kB luciferase reporter, primary screen, TCR NF-kB activation inhibitor project, cell-based, luminescence, uHTS (AID 435003)
Conditions: Jurkat, PMA/ionomycin-induced NF-kB luciferase reporter, at 4 µM, active compounds read high

| Structure (SMILES) | inhibition |
| --- | --- |
| CC(NC(=O)COC(=O)C(O)(c1ccccc1)c1ccccc1)c1ccccc1 (stereo not given) | inactive: 1.92% |
| Cc1ccc(OP(=O)(Nc2ccccn2)Oc2ccc(C)cc2)cc1 | inactive: 7.27% |
| CC(=O)NC(SC(=S)N(CC(C)C)CC(C)C)C(Cl)(Cl)Cl (stereo not given) | inactive: 42.2% |
| COC(=O)c1cc2c(s1)N=C(c1ccccc1)N(C)P2(=O)N1CCOCC1 (stereo not given) | inactive: 2.54% |
| CCC(=O)N1C2C3N(C(=O)CC)C1C1N(C(=O)CC)C(C(N1C(=O)CC)N3C(=O)CC)N2C(=O)CC | inactive: -5.74% |
| O=C(OC1CN2CCC1CC2)c1ccccc1 (stereo not given) | inactive: 8.57% |
| O=C(O)COc1ccc([As](=O)(O)O)cc1[N+](=O)[O-] | inactive: -30.2% |
| Nc1ccccc1[As](=O)(O)c1ccccc1 | inactive: 3.66% |
| CS(=O)(=O)c1cc([N+](=O)[O-])c2no[n+]([O-])c2c1 | inactive: -8.7% |
| O=P(Nc1nccs1)(c1ccccc1)c1nc2ccccc2s1 (stereo not given) | inactive: -8.65% |
| O=P(Nc1nccs1)(Oc1ccccc1)Oc1ccccc1 | inactive: -10.5% |
| CCOP1(=S)c2c(C)nn(CCC#N)c2N=C(c2ccccc2F)N1C (stereo not given) | inactive: -4.49% |
| CN(C(=O)Cc1ccc(Cl)c(Cl)c1)[C@H]1CC[C@@]2(CCCO2)C[C@@H]1N1CCCC1 | inactive: -0.887% |
| CN(C)C(=O)c1cc([N+](=O)[O-])cc2c1-c1c(cc([N+](=O)[O-])cc1[N+](=O)[O-])C2=O | inactive: 17.5% |
| O=[N+]([O-])c1ccc2c(c1)nnn2O | inactive: -5.09% |
| CCOP1(=S)c2c(C)nn(CCC#N)c2N=C(c2ccc(F)cc2)N1C (stereo not given) | inactive: -4.39% |
| CN(C(=O)Cc1ccccc1)[C@@H]1CC[C@]2(CCCO2)C[C@H]1N1CCCC1 | inactive: 15.7% |
| N#CCCN(C(=O)COC(=O)C(O)(c1ccccc1)c1ccccc1)c1ccc(F)cc1 | inactive: 6.53% |
| NC(=O)Nc1ccc([As](=O)(O)O)cc1 | inactive: 7.89% |
| O=[As](O)(c1cccc(O)c1)c1cccc(O)c1 | inactive: 8.25% |
| Cc1cccc(OCC(=O)OC2CN3CCC2CC3)c1 (stereo not given) | inactive: 2.73% |
| CS(=O)(=O)c1ccc(Cl)c(NC(=O)COC(=O)C(O)(c2ccccc2)c2ccccc2)c1 | inactive: -25.1% |
| COc1cc(C(=O)NCC2(N3CCOCC3)CCCCC2)cc(Cl)c1OC(C)C | inactive: -17% |
| O=[As](O)(O)c1cccnc1 | inactive: 8.44% |
| O=C(OC1CN2CCC1CC2)c1ccc(Cl)cc1 (stereo not given) | inactive: 11.3% |
| CCOP(=O)(Nc1cccc2ccccc12)OCC | inactive: 6.38% |
| COc1cc(C2NCCC3(OCCO3)C2(C)C)cc(OC)c1OC (stereo not given) | inactive: 3.05% |

| Structure (SMILES) | inhibition |
| --- | --- |
| CCCOP(=S)(Nc1nc(N)cc(=O)[nH]1)OCCC | inactive: 12.4% |
| Cc1ccc(NCCc2c([N+](=O)[O-])cc([N+](=O)[O-])cc2[N+](=O)[O-])cc1 | inactive: -1.21% |
| CC(C)(C)C(=O)NC(Sc1ncccn1)C(Cl)(Cl)Cl (stereo not given) | inactive: -11.9% |
| Clc1n[nH]nc1-c1nn[nH][15n]1 | inactive: -0.785% |
| CN(CCCl)Cc1cc(Cl)c(NC2=NCCN2)c(Cl)c1 | inactive: -3.29% |
| CCOP(=O)(Nc1ccc(C)cn1)OCC | inactive: -21.3% |
| CCOP(=O)(NC(=NC(C)c1ccccc1)NC(C)c1ccccc1)OCC (stereo not given) | inactive: -6.03% |
| CCC1=CC2Cc3nc4ccc(Cl)cc4c(N)c3C(C1)C2 (stereo not given) | inactive: -14.7% |
| O=P1(Nc2ccccn2)COc2ccccc2OC1 | inactive: -5.09% |
| CC1(CBr)Cn2c(nc3ccccc3c2=O)S1 (stereo not given) | inactive: 4.58% |
| CN(C(=O)Cc1ccc(Cl)c(Cl)c1)[C@@H]1CCCC[C@H]1N1CCCC1 | inactive: 13.6% |
| CC(C)/C=N\N=C(\N)N[N+](=O)[O-] | inactive: 0.231% |
| COc1ccccc1CNC(=O)COC(=O)C(O)(c1ccccc1)c1ccccc1 | inactive: 21.4% |
| O=C(/C=C/c1ccccc1)OC1CN2CCC1CC2 (stereo not given) | inactive: 2.18% |
| CN(C)C1(CNC(=O)c2ccc(S(C)(=O)=O)cc2)CCCCC1 | inactive: -9.7% |
| Cc1ccc(C(=O)OC2CN3CCC2CC3)cc1 (stereo not given) | inactive: 2.87% |
| CC1CCC(C(C)C)C(OP(=O)(Nc2ccccn2)c2ccccc2)C1 (stereo not given) | inactive: 14.2% |
| Cc1nn(-c2ccccc2)c2c1P(=O)(N1CCOCC1)N(C)C(c1ccccc1)=N2 (stereo not given) | inactive: 12.6% |
| NS(=O)(=O)c1cccc(NC(=O)COC(=O)C(O)(c2ccccc2)c2ccccc2)c1 | inactive: 1.36% |
| O=P1(Nc2ccc(Br)cn2)COc2ccccc2OC1 | inactive: 0.655% |
| O=[As](O)(c1cccs1)c1cccs1 | inactive: -11.6% |
| Cc1ccc(OCC(=O)OC2CN3CCC2CC3)cc1 (stereo not given) | inactive: 16.1% |
| Nc1cccc([As](=O)(O)c2ccccc2)c1 | inactive: 3.74% |
| O=P1(Nc2ncccn2)COc2ccccc2OC1 | inactive: -8.14% |
| Cc1cc(SC(NC(=O)c2ccccc2)C(Cl)(Cl)Cl)nc(C(C)C)n1 (stereo not given) | inactive: 36.7% |
| CCCCOc1ccc(C(=O)NCC2(N3CCCCC3)CCCCC2)cc1OC | inactive: -4.36% |
| CCOC(=O)Nc1ccc([As](=O)(O)O)c(O)c1 | inactive: 4.64% |

| Structure (SMILES) | inhibition |
| --- | --- |
| Cc1cc(SC(NC=O)C(Cl)(Cl)Cl)ncn1 (stereo not given) | inactive: -9.88% |
| O=P(Nc1ccccn1)(c1cccc2ccccc12)c1cccc2ccccc12 | inactive: -0.985% |
| CCOC(=O)Nc1cccc([As](=O)(O)O)c1 | inactive: -21.1% |
| O=C(Nc1ccncc1[N+](=O)[O-])c1ccc([N+](=O)[O-])cc1[N+](=O)[O-] | inactive: 6.59% |
| O=C(COc1ccccc1)OC1CN2CCC1CC2 (stereo not given) | inactive: 0.442% |
| COP1(=S)c2c(C)nn(CCC#N)c2N=C(c2ccc(F)cc2)N1C (stereo not given) | inactive: -17.3% |
| CCC(C)N(CC(C)C)C(=S)SC(NC(C)=O)C(Cl)(Cl)Cl (stereo not given) | inactive: 2.4% |
| CCOC(=O)c1ccc(NC(=O)C(C)(CCl)SC)cc1 (stereo not given) | inactive: -36% |
| O=C(OC1CN2CCC1CC2)c1cccc([N+](=O)[O-])c1 (stereo not given) | inactive: -9.22% |
| COc1cc(I)ccc1[As](=O)(O)O | inactive: 3.18% |
| COc1ccc2nc(NP(=O)(c3ccccc3)c3ccccc3)sc2c1 | inactive: 22.1% |
| Cc1cc(=O)[nH]c(N[N+](=O)[O-])n1 | inactive: -17.7% |
| O=C(OC1CN2CCC1CC2)C12CC3CC(CC(C3)C1)C2 (stereo not given) | inactive: 0.846% |
| Cc1c2c(nc3ccccc13)SC(C(Cl)Cl)C2 (stereo not given) | inactive: 4.82% |
| COc1ccc(N/C(=N/P(=O)(N2CCOCC2)N2CCOCC2)N2CCOCC2)cc1 | inactive: 5.9% |
| Cc1ccc2nc3c(c(C)c2c1)CC(C(Cl)Cl)S3 (stereo not given) | inactive: -21.8% |
| Cc1ccc(OP(=O)(Nc2ccc([N+](=O)[O-])cn2)Oc2ccc(C)cc2)cc1 | inactive: -3.95% |
| COc1cc(C(=O)NCC2(N3CCOCC3)CCCCC2)ccc1OCC(C)C | inactive: -6.18% |
| C[As](=O)(O)c1cccc(C(=O)O)c1 | inactive: -2.7% |
| O=[As](O)(c1ccc(O)cc1)c1ccccc1O | inactive: 0.804% |
| O=[N+]([O-])c1cc([N+](=O)[O-])c(-c2ccn[nH]2)s1 | inactive: 25.2% |
| O=C(OC1CN2CCC1CC2)c1cccc2[nH]cnc12 (stereo not given) | inactive: 11.4% |
| CCN(CC)C(=S)SC(NC=O)C(Cl)(Cl)Cl (stereo not given) | inactive: -18.8% |
| CC(C)NC(=O)NP(=O)(Oc1ccccc1)Oc1ccccc1 | inactive: -3.09% |
| CC(C)c1ccc(OP(=O)(Nc2ccccn2)Oc2ccccc2F)cc1 (stereo not given) | inactive: 1.27% |
| ClCCSc1nnc(-c2cccnc2)o1 | inactive: 5.5% |
